Here are results for one compound from PubChem BioAssay AID636 (SRMLSC, 2007).

Only a part is listed here, and it is no random draw. Some of these compounds have results that are not shown, active ones among them. The source made the active and inactive calls. Cut-off read from the data, not from the text of the source: active = inhibition above about 31%; inactive = the rest.

A short description of the assay: 384-well plate pilot, post-Golgi transport modulator project, inhibition of yeast transport mutant growth (AID 636). Conditions: absorbance 615 nm, about 18 h, hits give high values.
With `O=C(OC1CN2CCC1CC2)C(CO)(c1ccccc1)c1ccccc1` (stereo unspecified), the inhibition – broadly, the relative decrease from the control value, in per cent – is inactive: -7.2%.
